Reference: PubChem BioAssay AID493240 (Broad Institute, 2011)
Only a part is listed here, and it is no random draw. Potency and affinity values are given separately. The source made the active and inactive calls. How the calls were made is not given here.

Assay: cytotoxicity in parental SK-MEL-5 melanoma cells – cell-based, CellTiter-Glo, cherry-picked, set 3, orthogonal assay for MITF inhibitor project, dose response (AID 493240)
Conditions: SK-MEL-5 viability, ATP luminescence (CellTiter-Glo), 24 h; at 35 µM (top of the series)

Q: For O=[N+]([O-])c1cc([N+](=O)[O-])c(-c2ccn[nH]2)s1, which activity change, negative = viability loss is on record?
A: inactive: -10.3%

Q: For CCc1nc2c(n1)c1c(non1O)c1c2no[n+]1[O-], which activity change, negative = viability loss is on record?
A: inactive: -18.5%
